Consider 21 molecules from patent US20090099157A1, “TETRAHYDRO-PYRAZOLO-PYRIDINE THIOETHER MODULATORS OF CATHEPSIN S” (priority 2007, published 2009).

Amino acid sequences for entries named in this document (tags omitted). Residues count along the entry.
UniProt P25774, 115-331: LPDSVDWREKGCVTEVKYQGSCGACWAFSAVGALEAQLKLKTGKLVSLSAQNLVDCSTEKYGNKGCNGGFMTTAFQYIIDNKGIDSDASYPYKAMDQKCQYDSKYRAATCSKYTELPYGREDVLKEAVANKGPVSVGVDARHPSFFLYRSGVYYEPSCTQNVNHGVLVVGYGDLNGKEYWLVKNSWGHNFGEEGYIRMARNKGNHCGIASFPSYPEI

This experiment concerns the target Recombinant human cathepsin S (CatS) (Homo sapiens, UniProt P25774). Put plainly: biochemical.

In general, IC50 refers to the concentration that gives 50% inhibition. `CS(=O)(=O)N1CCc2c(c(-c3ccc(C(F)(F)F)c(SCCN4CCC5CCCCC5C4)c3)nn2CCCN2CCC(N3CCCC3=O)CC2)C1` (stereo not drawn) [Example 6, 1-{1-[3-(5-Methanesulfonyl-3-{3-[2-(octahydro-isoquinolin-2-yl)-ethylsulfanyl]-4-trifluoromethyl-phenyl}-4,5,6,7-tetrahydro-pyrazolo[4,3-c]pyridin-1-yl)-propyl]-piperidin-4-yl}-pyrrolidin-2-one]: the IC50 was determined as 60 nM.

Take `CC(=O)N1CCN(CCSc2cc(-c3nn(CC(O)CN4CCC(NS(C)(=O)=O)CC4)c4c3CN(S(C)(=O)=O)CC4)ccc2C(F)(F)F)CC1` (stereo not drawn) [Example 857, N-[1-(3-{3-[3-{[2-(4-Acetylpiperazin-1-yl)ethyl]sulfanyl}-4-(trifluoromethyl)phenyl]-5-(methylsulfonyl)-4,5,6,7-tetrahydro-1H-pyrazolo[4,3-c]pyridin-1-yl}-2-hydroxypropyl)piperidin-4-yl]methanesulfonamide]: the IC50 is 650 nM.

In the case of `CS(=O)(=O)N1CCc2c(c(-c3ccc(C(F)(F)F)c(SCCNC(=O)C4CCNCC4)c3)nn2CC(O)CN2CCC(N3CCCC3=O)CC2)C1` (stereo not drawn) [Example 127, Piperidine-4-carboxylic acid {2-[5-(1-{2-hydroxy-3-[4-(2-oxo-pyrrolidin-1-yl)-piperidin-1-yl]-propyl}-5-methanesulfonyl-4,5,6,7-tetrahydro-1H-pyrazolo[4,3-c]pyridin-3-yl)-2-trifluoromethyl-phenylsulfanyl]-ethyl}-amide], the IC50 turned out to be 850 nM.

Turning to `O=C(CSc1cc(-c2nn(CC(O)CN3CCC4(CC3)OCCO4)c3c2CNCC3)ccc1C(F)(F)F)N1CCCC1` (stereo not drawn) [Example 318, 1-(1,4-Dioxa-8-azaspiro[4.5]dec-8-yl)-3-(3-{3-[(2-oxo-2-pyrrolidin-1-ylethyl)sulfanyl]-4-(trifluoromethyl)phenyl}-4,5,6,7-tetrahydro-1H-pyrazolo[4,3-c]pyridin-1-yl)propan-2-ol], the IC50 turned out to be 1440 nM.

Regarding `OC(CN1CCC(N2CCCC2)CC1)Cn1nc(-c2ccc(C(F)(F)F)c(SCCN3CCCCC3)c2)c2c1CCNC2` (stereo not drawn) [Example 231, 1-(3-{3-[(2-Piperidin-1-ylethyl)sulfanyl]-4-(trifluoromethyl)phenyl}-4,5,6,7-tetrahydro-1H-pyrazolo[4,3-c]pyridin-1-yl)-3-(4-pyrrolidin-1-ylpiperidin-1-yl)propan-2-ol], the IC50 stood at 9520 nM.

As for `CS(=O)(=O)N1CCc2c(c(-c3ccc(C(F)(F)F)c(SCCN4CC[C@H](F)C4)c3)nn2C[C@@H](O)CN2CC3CCCC3C2)C1` (stereo partly drawn) [Example 454, (2S)-1-{3-[3-({2-[(3S)-3-Fluoropyrrolidin-1-yl]ethyl}sulfanyl)-4-(trifluoromethyl)phenyl]-5-(methylsulfonyl)-4,5,6,7-tetrahydro-1H-pyrazolo[4,3-c]pyridin-1-yl}-3-(hexahydrocyclopenta[c]pyrrol-2(1H)-yl)propan-2-ol], the IC50 worked out at 650 nM.

Turning to `CS(=O)(=O)N1CCc2c(c(-c3ccc(C(F)(F)F)c(SCCN4CCCC4)c3)nn2CC(O)CN2CCC(c3ccccn3)CC2)C1` (stereo not drawn) [Example 621, 1-[5-(Methylsulfonyl)-3-{3-[(2-pyrrolidin-1-ylethyl)sulfanyl]-4-(trifluoromethyl)phenyl}-4,5,6,7-tetrahydro-1H-pyrazolo[4,3-c]pyridin-1-yl]-3-(4-pyridin-2-ylpiperidin-1-yl)propan-2-ol], the IC50 was 25 nM.

For the molecule `CC(C)(O)C1CCN(C[C@H](O)Cn2nc(-c3ccc(C(F)(F)F)c(SCCN4CC[C@H](F)C4)c3)c3c2CCN(S(C)(=O)=O)C3)CC1` [Example 615, (2S)-1-{3-[3-({2-[(3S)-3-Fluoropyrrolidin-1-yl]ethyl}sulfanyl)-4-(trifluoromethyl)phenyl]-5-(methylsulfonyl)-4,5,6,7-tetrahydro-1H-pyrazolo[4,3-c]pyridin-1-yl}-3-[4-(1-hydroxy-1-methylethyl)piperidin-1-yl]propan-2-ol], the IC50 was found to be 360 nM.

Regarding `CS(=O)(=O)N1CCc2c(c(-c3ccc(C(F)(F)F)c(SCCN4CCCCC4)c3)nn2CC(O)CN2CCC(C(=O)N3CCOCC3)CC2)C1` (stereo not drawn) [Example 811, 1-[5-(Methylsulfonyl)-3-{3-[(2-piperidin-1-ylethyl)sulfanyl]-4-(trifluoromethyl)phenyl}-4,5,6,7-tetrahydro-1H-pyrazolo[4,3-c]pyridin-1-yl]-3-[4-(morpholin-4-ylcarbonyl)piperidin-1-yl]propan-2-ol], the IC50 stood at 150 nM.

As to `CS(=O)(=O)N1CCc2c(c(-c3ccc(C(F)(F)F)c(SCCN4CCC(F)(F)C4)c3)nn2CC(O)CN2CCC(Oc3ncccn3)CC2)C1` (stereo not drawn) [Example 820, 1-{3-[3-{[2-(3,3-Difluoropyrrolidin-1-yl)ethyl]sulfanyl}-4-(trifluoromethyl)phenyl]-5-(methylsulfonyl)-4,5,6,7-tetrahydro-1H-pyrazolo[4,3-c]pyridin-1-yl}-3-[4-(pyrimidin-2-yloxy)piperidin-1-yl]propan-2-ol], the IC50 was 65 nM.

For `CN(C)S(=O)(=O)NCCSc1cc(-c2nn(CC(O)CN3CCC(N4CCCC4=O)CC3)c3c2CN(S(C)(=O)=O)CC3)ccc1C(F)(F)F` (stereo not drawn) [Example 831, N′-[2-({5-[1-{2-Hydroxy-3-[4-(2-oxopyrrolidin-1-yl)piperidin-1-yl]propyl}-5-(methylsulfonyl)-4,5,6,7-tetrahydro-1H-pyrazolo[4,3-c]pyridin-3-yl]-2-(trifluoromethyl)phenyl}sulfanyl)ethyl]-N,N-dimethylsulfamide], the IC50 was determined as 50 nM.

With `OC(CN1CCC(N2CCOCC2)CC1)Cn1nc(-c2ccc(C(F)(F)F)c(SCCN3CCCCC3)c2)c2c1CCNC2` (stereo not drawn) [Example 361, 1-(4-Morpholin-4-ylpiperidin-1-yl)-3-(3-{3-[(2-piperidin-1-ylethyl)sulfanyl]-4-(trifluoromethyl)phenyl}-4,5,6,7-tetrahydro-1H-pyrazolo[4,3-c]pyridin-1-yl)propan-2-ol], the IC50 is 7680 nM.

Consider `O=C(CSc1cc(-c2nn(CC(O)CN3CC4CCCC4C3)c3c2CNCC3)ccc1C(F)(F)F)N1CCCC1` (stereo not drawn) [Example 299, 1-(Hexahydrocyclopenta[c]pyrrol-2(1H)-yl)-3-(3-{3-[(2-oxo-2-pyrrolidin-1-ylethyl)sulfanyl]-4-(trifluoromethyl)phenyl}-4,5,6,7-tetrahydro-1H-pyrazolo[4,3-c]pyridin-1-yl)propan-2-ol], for which the half-maximal inhibitory concentration (IC50) stood at 2110 nM.

`CS(=O)(=O)N1CCc2c(c(-c3ccc(C(F)(F)F)c(SCCN4CCC(F)CC4)c3)nn2C[C@@H](O)CN2CCC[C@@H](O)C2)C1` [Example 487, (3R)-1-[(2S)-3-{3-[3-{[2-(4-Fluoropiperidin-1-yl)ethyl]sulfanyl}-4-(trifluoromethyl)phenyl]-5-(methylsulfonyl)-4,5,6,7-tetrahydro-1H-pyrazolo[4,3-c]pyridin-1-yl}-2-hydroxypropyl]piperidin-3-ol]: the IC50 is 330 nM.

Consider `CN(C)C1CCN(C(=O)CSc2cc(-c3nn(CCCN4CCC(N5CCCC5=O)CC4)c4c3CN(S(C)(=O)=O)CC4)ccc2C(F)(F)F)C1` (stereo not drawn) [Example 88, 1-{1-[3-(3-{3-[2-(3-Dimethylamino-pyrrolidin-1-yl)-2-oxo-ethylsulfanyl]-4-trifluoromethyl-phenyl}-5-methanesulfonyl-4,5,6,7-tetrahydro-pyrazolo[4,3-c]pyridin-1-yl)-propyl]-piperidin-4-yl}-pyrrolidin-2-one], for which the IC50 stood at 660 nM.

Take `CC(C)(C)C1CCN(CCSc2cc(-c3nn(CCCN4CCC(N5CCCC5=O)CC4)c4c3CN(S(C)(=O)=O)CC4)ccc2C(F)(F)F)CC1` [Example 16, 1-{1-[3-(3-{3-[2-(4-tert-Butyl-piperidin-1-yl)-ethylsulfanyl]-4-trifluoromethyl-phenyl}-5-methanesulfonyl-4,5,6,7-tetrahydro-pyrazolo[4,3-c]pyridin-1-yl)-propyl]-piperidin-4-yl}-pyrrolidin-2-one]: the IC50 was 160 nM.

`CC(C)(C)OC(=O)N1CCC(C(=O)NCCSc2cc(-c3nn(CC(O)CN4CCC(N5CCCC5=O)CC4)c4c3CN(S(C)(=O)=O)CC4)ccc2C(F)(F)F)CC1` (stereo not drawn) [Example 116, 4-{2-[5-(1-{2-Hydroxy-3-[4-(2-oxo-pyrrolidin-1-yl)-piperidin-1-yl]-propyl}-5-methanesulfonyl-4,5,6,7-tetrahydro-1H-pyrazolo[4,3-c]pyridin-3-yl)-2-trifluoromethyl-phenylsulfanyl]-ethylcarbamoyl}-piperidine-1-carboxylic acid tert-butyl ester]: the IC50 was found to be 190 nM.

With `CS(=O)(=O)N1CCc2c(c(-c3ccc(C(F)(F)F)c(SCC(=O)N4CCC(CO)CC4)c3)nn2CCCN2CCC(N3CCCC3=O)CC2)C1` [Example 77, 1-{1-[3-(3-{3-[2-(4-Hydroxymethyl-piperidin-1-yl)-2-oxo-ethylsulfanyl]-4-trifluoromethyl-phenyl}-5-methanesulfonyl-4,5,6,7-tetrahydro-pyrazolo[4,3-c]pyridin-1-yl)-propyl]-piperidin-4-yl}-pyrrolidin-2-one], the IC50 worked out at 120 nM.

`CS(=O)(=O)N1CCc2c(c(-c3ccc(C(F)(F)F)c(SCCN4CCOCC4)c3)nn2CC(O)CN2CCc3[nH]cnc3C2)C1` (stereo not drawn) [Example 528, 1-[5-(Methylsulfonyl)-3-{3-[(2-morpholin-4-ylethyl)sulfanyl]-4-(trifluoromethyl)phenyl}-4,5,6,7-tetrahydro-1H-pyrazolo[4,3-c]pyridin-1-yl]-3-(1,4,6,7-tetrahydro-5H-imidazo[4,5-c]pyridin-5-yl)propan-2-ol]: the IC50 amounted to 1540 nM.

Turning to `CS(=O)(=O)N1CCc2c(c(-c3ccc(C(F)(F)F)c(SCCNC4CCCC4)c3)nn2CC(O)CN2CCC(O)(c3ccccn3)CC2)C1` (stereo not drawn) [Example 716, 1-(3-{3-[3-{[2-(Cyclopentylamino)ethyl]sulfanyl}-4-(trifluoromethyl)phenyl]-5-(methylsulfonyl)-4,5,6,7-tetrahydro-1H-pyrazolo[4,3-c]pyridin-1-yl}-2-hydroxypropyl)-4-pyridin-2-ylpiperidin-4-ol], the IC50 worked out at 60 nM.

`CC1C(=O)NCCN1CCSc1cc(-c2nn(CC(O)CN3CCC(NS(C)(=O)=O)CC3)c3c2CN(S(C)(=O)=O)CC3)ccc1C(F)(F)F` (stereo not drawn) [Example 832, N-[1-(2-Hydroxy-3-{3-[3-{[2-(2-methyl-3-oxopiperazin-1-yl)ethyl]sulfanyl}-4-(trifluoromethyl)phenyl]-5-(methylsulfonyl)-4,5,6,7-tetrahydro-1H-pyrazolo[4,3-c]pyridin-1-yl}propyl)piperidin-4-yl]methanesulfonamide]: the IC50 stood at 320 nM.
